The values below are quoted from earlier work in patent US10821097B2, “DBH inhibitors for treating or preventing memory loss” (Brandeis University, priority 2015, dated 2020).

Chains of the proteins cited; added tags and fusions are not shown.
UniProt P41145, whole entry D138N: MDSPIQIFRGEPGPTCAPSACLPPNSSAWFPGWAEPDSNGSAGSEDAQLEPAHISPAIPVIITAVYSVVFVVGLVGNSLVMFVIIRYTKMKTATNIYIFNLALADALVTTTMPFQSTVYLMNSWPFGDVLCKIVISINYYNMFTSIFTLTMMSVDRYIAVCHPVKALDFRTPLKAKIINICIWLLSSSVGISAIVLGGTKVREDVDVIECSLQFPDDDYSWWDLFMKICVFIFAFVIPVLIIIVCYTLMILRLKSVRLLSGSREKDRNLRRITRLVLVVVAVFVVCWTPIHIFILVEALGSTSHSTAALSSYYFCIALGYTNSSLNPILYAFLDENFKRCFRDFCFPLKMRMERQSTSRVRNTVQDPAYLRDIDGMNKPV

Each structure is given as a SMILES string.

The series concerns the target T1, KORD (Homo sapiens, UniProt P41145, D138N).
T1 construct: host or cells: transgene/viral expression in mouse neurons (Vardy et al., 2015); planned LC-specific KORD mice
The conditions noted are these: 10 mg/kg subcutaneously; cited from earlier work.

For `COC(=O)[C@@H]1C[C@H](O)C(=O)[C@H]2[C@@]1(C)CC[C@H]1C(=O)O[C@H](c3ccoc3)C[C@]21C` [SALB, salvinorin B], the “duration of effects after injection” value was around 1 h.
